The values below are quoted from earlier work in PMC5374433, “Theranostic Value of Multimers: Lessons Learned from Trimerization of Neurotensin Receptor Ligands and Other Targeting Vectors” (Pharmaceuticals, 2017).

The chains behind the UniProt entries cited, without tags or fusion partners. Where a name states a change or a piece, a line headed by the entry shows the natural chain unless it says otherwise.
UniProt O95665: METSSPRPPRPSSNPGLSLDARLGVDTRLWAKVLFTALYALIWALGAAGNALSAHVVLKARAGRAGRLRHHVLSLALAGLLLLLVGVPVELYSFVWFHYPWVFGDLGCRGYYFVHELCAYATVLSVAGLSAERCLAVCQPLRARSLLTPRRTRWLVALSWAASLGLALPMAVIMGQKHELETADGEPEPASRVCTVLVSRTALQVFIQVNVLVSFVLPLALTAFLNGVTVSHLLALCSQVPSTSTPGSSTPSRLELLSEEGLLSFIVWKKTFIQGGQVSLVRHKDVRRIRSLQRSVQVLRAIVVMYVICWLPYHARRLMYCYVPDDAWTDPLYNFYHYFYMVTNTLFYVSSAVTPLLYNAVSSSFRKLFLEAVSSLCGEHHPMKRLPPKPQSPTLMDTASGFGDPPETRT

In this series the target is Neurotensin receptor 2 (NTS2) (Homo sapiens) (UniProt O95665). As to the kind of experiment: radioligand. The following applies: cited from earlier work.

By Kd is commonly meant the equilibrium constant for the complex coming apart. As for NT(8-13), the Kd is 1.4 nM.
